{"source": "patent US20060110401A1", "about": "“Mixture of peptides from c and ns3 proteins of the hepatitis c virus and applications thereof” (priority 2002, published 2006)", "key": {"DR3": {"system": "DR3", "experiment": "DR3"}, "DR4": {"system": "DR4", "experiment": "DR4"}, "DR7": {"system": "DR7", "experiment": "DR7"}, "DRB4": {"system": "DRB4", "experiment": "DRB4"}, "DRB5": {"system": "DRB5", "experiment": "DRB5"}, "DR11": {"system": "DR11", "experiment": "DR11"}, "DP401": {"system": "DP401", "experiment": "DP401"}}}
{"smiles": "CC[C@H](C)[C@H](NC(=O)[C@@H](NC(=O)[C@H](CCCCN)NC(=O)CNC(=O)[C@H](CC(C)C)NC(=O)[C@H](CC(N)=O)NC(=O)[C@H](CCCNC(=N)N)NC(=O)[C@H](CCCNC(=N)N)NC(=O)[C@H](CCCNC(=N)N)NC(=O)[C@@H]1CCCN1C(=O)[C@H](CC(=O)O)NC(=O)[C@@H](NC(=O)[C@@H]1CCCN1C(=O)CNC(=O)[C@H](Cc1c[nH]c2ccccc12)NC(=O)[C@H](CO)NC(=O)[C@@H]1CCCN1C(=O)[C@@H](N)CCCNC(=N)N)[C@@H](C)O)C(C)C)C(=O)N[C@@H](CC(=O)O)C(=O)N[C@H](C(=O)N[C@@H](CC(C)C)C(=O)N[C@H](C(=O)N[C@@H](CS)C(=O)NCC(=O)N[C@@H](Cc1ccccc1)C(=O)N[C@@H](C)C(=O)N[C@@H](CC(=O)O)C(=O)N[C@@H](CC(C)C)C(=O)O)[C@@H](C)O)[C@@H](C)O", "note": "[4C 104-133]", "values": [{"measurement": "IC50", "setting": "DR3", "result": 5170, "unit": "nM"}, {"measurement": "IC50", "setting": "DR4", "result": 1030, "unit": "nM"}, {"measurement": "IC50", "setting": "DR7", "result": 125, "unit": "nM"}, {"measurement": "IC50", "setting": "DRB4", "result": 3330, "unit": "nM"}, {"measurement": "IC50", "setting": "DRB5", "result": 433, "unit": "nM"}, {"measurement": "IC50", "setting": "DR11", "result": 867, "unit": "nM"}, {"measurement": "IC50", "setting": "DP401", "result": 13900, "unit": "nM"}]}
